In patent US20220117911A1, “METHODS AND COMPOSITIONS FOR MODULATING BLOOD-BRAIN BARRIER” (INSERM (institut National de la Santé et de la Recherche …, priority 2019, published 2022):

System: hPBMEC monolayers
Assay: TEER of in vitro human BBB model using hPBMECs on Transwell
Assay type: cell-based
Conditions: 1 μM CBD, 120 h post seeding
Protocol: Human Primary Brain Microvascular Endothelial Cells (hPBMECs). Brain capillary endothelial cells were isolated from surgical resections of patients with brain tumors. The experimentation was conducted in compliance with the French legislation, and the protocol was permitted by the French Ministry of Higher Education and Research (CODECOH DC-2014-2229). In brief, brain capillaries were isolated using soft digestion of patient brain peritumoral tissues and then seeded. Brain primary microvascular endothelial cells were shortly amplified and seeded on Transwell® (Corning) with microporous membranes (pore size: 0.4 μm) in monoculture or in co-culture with the same patient's fresh primary human cultured astrocytes. Cells were cultured in EBM-2 medium (Lonza, Basel, Switzerland) supplemented with 20% serum and growth factors (Sigma).
To study the effect of CBD on in vitro human BBB model formation, hPBMECs were isolated from surgical resections of a fourth patient (patient 4: a person suffering from glioma, peritumoral biopsy). hPBMECs were then seeded onto Transwell® inserts with glial cells conditioned medium (50/50). After 24 h co-culture, CBD (1 μM) or the same proportion of vehicle was added into the cell inserts. […] The TEER values expressed in Ω·cm2 were recorded after 1, 2, 4, 10, 24, 31, 48, 72, 96, 120 h of CBD treatment.

C=C(C)[C@@H]1CCC(C)=C[C@H]1c1c(O)cc(CCCCC)cc1O [CBD, cannabidiol]
increase of TEER: 16.5±2.0%
